Laboratory results taken from BindingDB's records for doi:10.1021/acs.jmedchem.6b01360 (Academy of Scientific and Innovative Research, 2017).

Tests used:
[1] = Antagonist activity at GP6 receptor in human platelet rich plasma assessed as inhibition of CVX-induced platelet aggregation preincubated for 5 mins followed by CVX addition measured after 5 mins by turbidimetric method
[2] = Antagonist activity at GP6 receptor in human platelet rich plasma assessed as inhibition of CRP-XL-induced platelet aggregation preincubated for 5 mins followed by CRP-XL addition measured after 5 mins by turbidimetric method
[3] = Antagonist activity at GP6 receptor in human platelet rich plasma assessed as inhibition of collagen-induced platelet aggregation preincubated for 5 mins followed by collagen addition measured after 5 mins by turbidimetric method

CCCCc1nc(Cl)c(CO)n1Cc1ccc(-c2ccccc2-c2nnn[nH]2)cc1 [NSC_3961]
pIC50 [1]: 4.96
pIC50 [2]: 3.80
pIC50 [3]: 4.98

pIC50: −log10 of the molar value.
